“And” between values parts separate entries of the source, which are not always exact repeats. Identical values can stand only once. Like-named read-outs stand apart in the source and are kept apart here.
Assays:
[1] = tested on: bacterial angular leaf spot in cucumbers; conditions: in vivo
bacterial blight in rice = conditions: spray before inoculation

[Cu+2].[O-]c1cccc2cccnc12.[O-]c1cccc2cccnc12 [oxine-copper, reference compound]
efficacy against bacterial angular leaf spot in cucumbers [1]: 15% and 10% | efficacy against bacterial blight in rice (bacterial blight in rice; dosage 5 ppm): 6% | efficacy against bacterial blight in rice (bacterial blight in rice; dosage 10 ppm): 10%

From patent publication US20250313533A1, “QUINOLINE CARBOXYLIC ACID ESTER COMPOUND AND PREPARATION METHOD AND USE THEREOF” (priority 2019, published 2025)
